The source of these data is PubChem BioAssay AID1229 (Sanford-Burnham Center for Chemical Genomics, 2008).

Some of the results follow. Active and inactive are the calls of the source.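 The calls were made as follows: active = diaphorase activity raised at least twofold by the compound at 20 µM; inactive = activation factor below 2.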

The nature of this experiment: compounds boosting diaphorase resazurin reduction – biochemical, uHTS, resorufin fluorescence, counter-screen for diaphorase-coupled primary assays, primary screen (AID 1229). Conditions: Diaphorase/resazurin coupled assay, 16 min, at 20 µM; hits give high values, 1 = vehicle wells, 0 = NADH-free wells. A digest of the protocol: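 Material: bacterial diaphorase enzyme (C. kluyveri); amount: enzyme 0.07 U/mL final; reagent: NADH substrate 0.114 mM plus resazurin dye 0.1 mM, final; doses: single compound dose of 20 µM, 1% DMSO final; timing: 16 min enzyme reaction, ambient temperature; measured by: fluorescence of resorufin, 544 nm excitation, 590 nm emission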
Turning to `Cc1c(NP(C)(=O)Oc2ccc(C(C)C)cc2)c(=O)n(-c2ccccc2)n1C` (configuration not stated), the activation factor is inactive: 1.1.

Regarding `CCc1ccc(OP(C)(=O)O)cc1`, the activation factor is inactive: 1.

Turning to `COc1ccccc1OP(C)(=O)Nc1ccc(C)cc1C` (configuration not stated), the activation factor result was “inactive”.

For `CP(=O)(Nc1ccccn1)Oc1ccccc1` (configuration not stated), the activation factor entry was “inactive”.

For `CN(C)CCOC(=O)C(O)(c1ccccc1)C1CCCC1` (configuration not stated), the activation factor is inactive: 1.

As to `COc1ccc(OP(C)(=O)Nc2ccccn2)cc1` (configuration not stated), the activation factor entry was “inactive”.

In the case of `COc1ccccc1OP(=O)(Nc1ccc(C)cn1)Oc1ccccc1OC`, the activation factor result was “inactive”.

As for `Cc1nc2ccc3ccccc3c2o1.O=[N+]([O-])c1cc([N+](=O)[O-])c(O)c([N+](=O)[O-])c1`, the activation factor is inactive: 0.5.

`CP(=O)(OCCOc1ccccc1)OCCOc1ccccc1`: the activation factor was inactive: 1.

Regarding `CP(=O)(Nc1ccc(Cl)cc1Cl)Oc1ccccc1` (configuration not stated), the activation factor entry is “inactive”.

For the molecule `Cc1cc(C)cc(OP(C)(=O)Nc2cccc(C(F)(F)F)c2)c1` (configuration not stated), the activation factor is inactive: 0.8.

In the case of `COc1ccc(OP(C)(=O)Nc2ccccc2Br)cc1` (configuration not stated), the activation factor result was “inactive”.

In the case of `COc1ccccc1OP(C)(=O)Nc1ccc(C)c(C)c1` (configuration not stated), the activation factor entry is “inactive”.

Turning to `CCOP(=O)(Nc1ccccc1)OCC`, the activation factor result was “inactive”.

Regarding `CP(=O)(OC12CC3CC(CC(C3)C1)C2)OC12CC3CC(CC(C3)C1)C2`, the activation factor was inactive: 0.8.

As for `CCOC(=O)c1ccc(NP(C)(=O)Oc2ccc(Cl)cc2)cc1` (configuration not stated), the activation factor was inactive: 1.

As to `CP(=O)(Nc1ccc(Cl)cc1)Oc1ccc(F)cc1` (configuration not stated), the activation factor entry is “inactive”.

Consider `CC(C)(C)c1ccc(OP(C)(=O)O)cc1`, for which the activation factor entry is “inactive”.

For the molecule `COc1ccccc1OP(C)(=O)Nc1ccccc1Br` (configuration not stated), the activation factor result is “inactive”.

With `CN(C)C(=O)c1c([N+](=O)[O-])cc([N+](=O)[O-])cc1[N+](=O)[O-]`, the activation factor result is “inactive”.

In the case of `COc1ccc(OP(C)(=O)Nc2ccc(Br)cc2)cc1` (configuration not stated), the activation factor is inactive: 0.8.

Take `CCN(CC)CC(O)COC(=O)C(O)(c1ccccc1)C1CCCCC1` (configuration not stated): the activation factor entry is “inactive”.

For `CCc1ccc(OP(C)(=O)Nc2cccnc2)cc1` (configuration not stated), the activation factor result was “inactive”.

Regarding `Cc1ccc(NP(=O)(Oc2ccccc2)Oc2ccccc2)nc1`, the activation factor entry was “inactive”.

For the molecule `CP(=O)(Oc1ccccc1)N1CCOC1=O` (configuration not stated), the activation factor is inactive: 1.

`COc1ccccc1OP(C)(=O)Nc1c(C)n(C)n(-c2ccccc2)c1=O` (configuration not stated): the activation factor entry is “inactive”.

`CC(=O)N1C2C3N(C(C)=O)C1C1N(C(C)=O)C(C(N1C(C)=O)N3C(C)=O)N2C(C)=O`: the activation factor entry is “inactive”.
